Test results from US11766405B2, “Process for the preparation of a freeze-dried pharmaceutical composition containing mitomycin C” (MEDAC GESELLSCHAFT FUR KLINISCHE SPEZIALPRAPARATE MBH, priority 2013, dated 2023).

Experiment: HPLC determination of impurities / mitomycin purity, process 2 (UV 254 nm)
Format: physicochemical
Details: 89/11 wt.-% tert.-butanol/water, 5° C. with exclusion of light
Experimental: Further, the content of mitomycin C and impurities in the mixtures obtained was determined after 24 hours' storage at room temperature.
Determination of the Content of Mitomycin C and of Impurities by High Pressure Liquid Chromatography
The samples are each diluted to 0.5 mg/ml mitomycin C with N,N-dimethylacetamide. The reference solution contains 0.5 mg/ml mitomycin C in N,N-dimethylacetamide.
Column: YMC-Pack Phenyl 4.6 mm×300 mm, 10 μm […]
Purity determinations according to process 2 were performed at different times.
Solutions of mitomycin C in a mixture of 89 wt.-% tert.-butanol and 11 wt.-% water were prepared. As well as 1.33 mg/g mitomycin C, the solutions also each contained 20 mg/g urea. […]
Solutions of mitomycin C in a mixture of 89 wt.-% tert.-butanol and 11 wt.-% water were prepared. As well as 1.67 mg/g mitomycin C, the solutions also each contained 25 mg/g urea. […]

CO[C@@]12[C@H](COC(N)=O)C3=C(C(=O)C(C)=C(N)C3=O)N1C[C@@H]1N[C@@H]12 [Mitomycin C, (1aS,8S,8aR,8bS)-6-amino-8-[[(aminocarbonyl)oxy]methyl]-1,1a,2,8,8a,8b-hexahydro-8a-methoxy-5-methyl-azirino[2′,3′:3,4]pyrrolo[1,2-a]indol-4,7-dione]
Mitomycin C purity (Example 7 solution: 1.33 mg/g mitomycin C, 20 mg/g urea, t = 5 h): 99.8%
Mitomycin C purity (Example 7 solution: 1.33 mg/g mitomycin C, 20 mg/g urea, t = 22 h): 99.8%
Mitomycin C purity (Example 8 solution: 1.67 mg/g mitomycin C, 25 mg/g urea, t = 5 h): 99.8%
Mitomycin C purity (Example 8 solution: 1.67 mg/g mitomycin C, 25 mg/g urea, t = 22 h): 99.5%
Mitomycin C purity (Example 8 solution: 1.67 mg/g mitomycin C, 25 mg/g urea, t = 27 h): 99.5%
